{"sequences": {"note": "Amino acid sequences for entries named in this document (tags omitted). Residues count along the entry.", "UniProt P43220, 24-463, species assumed": "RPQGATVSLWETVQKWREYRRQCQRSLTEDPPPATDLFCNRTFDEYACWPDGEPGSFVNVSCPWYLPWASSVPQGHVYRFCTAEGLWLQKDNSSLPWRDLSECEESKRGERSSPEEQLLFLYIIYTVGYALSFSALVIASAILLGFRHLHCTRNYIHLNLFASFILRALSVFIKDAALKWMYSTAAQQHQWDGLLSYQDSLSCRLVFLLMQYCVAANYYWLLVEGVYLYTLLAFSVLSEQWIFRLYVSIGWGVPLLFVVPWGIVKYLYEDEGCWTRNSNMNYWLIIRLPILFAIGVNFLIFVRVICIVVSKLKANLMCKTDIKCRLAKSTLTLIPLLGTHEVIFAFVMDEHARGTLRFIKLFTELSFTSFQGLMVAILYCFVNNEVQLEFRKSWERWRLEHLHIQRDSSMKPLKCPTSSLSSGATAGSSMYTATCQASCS"}, "source": "patent US9089539B2", "about": "(Indiana University Research and Technology Corporation, priority 2008, dated 2015)", "key": {"GLP-1 receptor": {"molecular_target": "GLP-1 receptor (Homo sapiens, UniProt P43220)", "assay": "Luciferase-based reporter gene assay for cAMP detection, GLP-1 receptor", "details": "incubation in PBS for a week; listed as Analog 5"}, "[1]": {"assay": "Cleavage of dipeptide-extended prodrugs on incubation in PBS (HPLC/MS)", "assay_type": "physicochemical", "details": "pH 7.2", "description": "Preliminary analyses were performed with these crude peptides to get an approximation of their relative conversion rates in Phosphate Buffered Saline (PBS) buffer (pH, 7.2) using high performance liquid chromatography (HPLC) and MALDI analysis. The crude peptide samples were dissolved in the PBS buffer at a concentration of 1 mg/ml. 1 ml of the resulting solution was stored in a 1.5 ml HPLC vial which was then sealed and incubated at 37° C. Aliquots of 100 μl were drawn out at various time intervals, cooled to room temperature and analyzed by HPLC.\nHPLC analyses were performed on a 150 mm×4.6 mm C18 Vydac column. The flow rate was 1 ml/min. […] A linear gradient was employed (40% to 70% B in 15 minutes).\nAlternatively, each peptide was heated for 120 min at 100° C. to accelerate the amide bond cleavage. Cleavage of the prodrugs was analyzed by reverse phase HPLC and MS.\nThe peptide was also heated at 100° C. to determine the susceptibility to cleavage (Table 4)."}}}
{"compound": "CC[C@H](C)[C@H](NC(=O)[C@H](Cc1ccccc1)NC(=O)[C@H](CCC(=O)O)NC(=O)[C@H](CCCCN)NC(=O)[C@H](C)NC(=O)[C@H](C)NC(=O)[C@H](CCC(N)=O)NC(=O)CNC(=O)[C@H](CCC(=O)O)NC(=O)[C@H](CC(C)C)NC(=O)[C@H](Cc1ccc(O)cc1)NC(=O)[C@H](CO)NC(=O)[C@H](CO)NC(=O)[C@@H](NC(=O)[C@H](CC(=O)O)NC(=O)[C@H](CO)NC(=O)[C@@H](NC(=O)[C@H](Cc1ccccc1)NC(=O)[C@@H](NC(=O)CNC(=O)[C@H](CCC(=O)O)NC(=O)[C@H](C)NC(=O)[C@H](Cc1ccccc1)OC(=O)[C@@H](NC(=O)CN)C(C)C)[C@@H](C)O)[C@@H](C)O)C(C)C)C(=O)N[C@@H](C)C(=O)N[C@@H](Cc1c[nH]c2ccccc12)C(=O)N[C@@H](CC(C)C)C(=O)N[C@H](C(=O)N[C@@H](CCCCN)C(=O)NCC(=O)NCC(=O)N1CCC[C@H]1C(=O)N[C@@H](CO)C(=O)N[C@@H](CO)C(=O)NCC(=O)N[C@@H](C)C(=O)N1CCC[C@H]1C(=O)N1CCC[C@H]1C(=O)N1CCC[C@H]1C(=O)N[C@@H](CO)C(N)=O)C(C)C", "note": "[Compound 10]", "values": [{"measurement": "potency after incubation", "setting": "GLP-1 receptor", "value": "potency converted close to that of the parent drug"}]}
{"compound": "CC[C@H](C)[C@H](NC(=O)[C@H](Cc1ccccc1)NC(=O)[C@H](CCC(=O)O)NC(=O)[C@H](CCCCN)NC(=O)[C@H](C)NC(=O)[C@H](C)NC(=O)[C@H](CCC(N)=O)NC(=O)CNC(=O)[C@H](CCC(=O)O)NC(=O)[C@H](CC(C)C)NC(=O)[C@H](Cc1ccc(O)cc1)NC(=O)[C@H](CO)NC(=O)[C@H](CO)NC(=O)[C@@H](NC(=O)[C@H](CC(=O)O)NC(=O)[C@H](CO)NC(=O)[C@@H](NC(=O)[C@H](Cc1ccccc1)NC(=O)[C@@H](NC(=O)CNC(=O)[C@H](CCC(=O)O)NC(=O)[C@H](C)NC(=O)[C@H](Cc1ccccc1)OC(=O)[C@@H](NC(=O)[C@@H](N)Cc1ccccc1)C(C)C)[C@@H](C)O)[C@@H](C)O)C(C)C)C(=O)N[C@@H](C)C(=O)N[C@@H](Cc1c[nH]c2ccccc12)C(=O)N[C@@H](CC(C)C)C(=O)N[C@H](C(=O)N[C@@H](CCCCN)C(=O)NCC(=O)NCC(=O)N1CCC[C@H]1C(=O)N[C@@H](CO)C(=O)N[C@@H](CO)C(=O)NCC(=O)N[C@@H](C)C(=O)N1CCC[C@H]1C(=O)N1CCC[C@H]1C(=O)N1CCC[C@H]1C(=O)N[C@@H](CO)C(N)=O)C(C)C", "note": "[Peptide 10]", "values": [{"measurement": "half-life", "setting": "[1]", "value": 2.67, "unit": "days"}]}
